Reference: PMC5573954 (Hippocampus, 2017)

The chains behind the UniProt entries cited, without tags or fusion partners.
UniProt P08172, whole entry: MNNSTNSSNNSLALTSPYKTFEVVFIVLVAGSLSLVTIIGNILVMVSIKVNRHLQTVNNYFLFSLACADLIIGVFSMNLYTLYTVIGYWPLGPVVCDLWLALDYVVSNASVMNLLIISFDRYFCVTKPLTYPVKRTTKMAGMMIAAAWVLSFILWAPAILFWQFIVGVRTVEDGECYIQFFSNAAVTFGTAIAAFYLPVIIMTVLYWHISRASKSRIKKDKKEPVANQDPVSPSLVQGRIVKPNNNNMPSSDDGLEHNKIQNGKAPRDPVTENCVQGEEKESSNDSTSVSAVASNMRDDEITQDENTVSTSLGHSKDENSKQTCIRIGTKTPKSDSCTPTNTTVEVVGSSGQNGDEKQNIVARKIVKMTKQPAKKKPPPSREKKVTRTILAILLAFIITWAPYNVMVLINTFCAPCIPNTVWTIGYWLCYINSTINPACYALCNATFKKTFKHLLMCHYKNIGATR

Target: hM2 (Homo sapiens, UniProt P08172)
Assay: GloSensor cAMP functional assay, HEK293 cells stably expressing hM2
Assay type: cell-based
Details: hM2 cell line

- ACh EC20: 3 nM
Compound: CC(=O)OCC[N+](C)(C)C [ACh, acetylcholine]
